Among the data in patent US10927076B2, “HSP90B N-terminal isoform-selective inhibitors” (priority 2017, dated 2021) are Kd values, retold here.

Amino acid sequences for entries named in this document (tags omitted).
UniProt P08238, whole entry: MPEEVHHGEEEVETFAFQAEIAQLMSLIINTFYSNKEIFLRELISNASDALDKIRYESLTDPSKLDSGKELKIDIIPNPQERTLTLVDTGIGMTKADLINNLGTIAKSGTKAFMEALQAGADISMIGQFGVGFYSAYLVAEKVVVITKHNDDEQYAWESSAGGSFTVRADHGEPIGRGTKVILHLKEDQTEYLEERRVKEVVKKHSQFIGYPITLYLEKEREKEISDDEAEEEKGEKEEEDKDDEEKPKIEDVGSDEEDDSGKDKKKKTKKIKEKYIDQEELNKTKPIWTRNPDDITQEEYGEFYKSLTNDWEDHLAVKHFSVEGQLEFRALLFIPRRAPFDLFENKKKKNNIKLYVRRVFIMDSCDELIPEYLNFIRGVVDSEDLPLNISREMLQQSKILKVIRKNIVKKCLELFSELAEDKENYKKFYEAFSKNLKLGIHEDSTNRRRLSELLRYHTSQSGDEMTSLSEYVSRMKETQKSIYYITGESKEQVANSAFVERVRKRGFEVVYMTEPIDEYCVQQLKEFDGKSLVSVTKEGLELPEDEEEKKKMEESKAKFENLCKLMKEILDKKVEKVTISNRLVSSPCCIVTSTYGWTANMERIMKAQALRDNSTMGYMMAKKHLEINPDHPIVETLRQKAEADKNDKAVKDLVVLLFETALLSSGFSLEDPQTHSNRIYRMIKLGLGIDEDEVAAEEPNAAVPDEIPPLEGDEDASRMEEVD

The structures appear in SMILES notation.

One experiment has as its target Hsp90α (Homo sapiens (Human), UniProt P07900). The experiment can be described thus: Fluorescence polarization assay (FITC-GDA tracer displacement). Type of experiment: binding. Particulars: read-out: Kd Hsp90α.
A further experiment concerns the target Hsp90β (Homo sapiens (Human), UniProt P08238). The description is as above. Particulars: read-out: Kd Hsp90β. Type of experiment: binding.

For the compound `CC(C)c1cc(C(=O)N2Cc3ccccc3C2)c(O)c2nn[nH]c12`, the Kd at Hsp90α and at Hsp90β was not below 100 µM throughout.
